Only a part is listed here, and it is no random draw. Some tests of the compounds listed are not included; inactive here does not mean inactive elsewhere. Active and inactive are the calls of the source.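 Rule for the calls: active = signal enhancement of 30% or more; inactive = the rest.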

Protein sequences, listed by entry. Tags and fused reporters are not part of them.
UniProt Q00987, whole entry: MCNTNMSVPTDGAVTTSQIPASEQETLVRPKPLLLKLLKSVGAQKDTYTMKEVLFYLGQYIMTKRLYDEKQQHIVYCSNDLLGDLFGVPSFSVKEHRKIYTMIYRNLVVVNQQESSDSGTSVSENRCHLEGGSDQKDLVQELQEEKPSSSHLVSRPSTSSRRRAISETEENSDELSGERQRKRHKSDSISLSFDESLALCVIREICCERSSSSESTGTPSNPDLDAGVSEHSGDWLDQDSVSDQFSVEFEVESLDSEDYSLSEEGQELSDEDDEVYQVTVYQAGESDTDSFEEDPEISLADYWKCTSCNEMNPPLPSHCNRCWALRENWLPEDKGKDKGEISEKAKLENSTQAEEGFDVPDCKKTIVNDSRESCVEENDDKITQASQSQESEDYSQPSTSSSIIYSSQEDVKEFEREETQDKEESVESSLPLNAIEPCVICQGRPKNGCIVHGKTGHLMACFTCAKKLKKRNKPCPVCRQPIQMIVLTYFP

In this test the target is E3 ubiquitin-protein ligase Mdm2 (Homo sapiens) (UniProt Q00987). As to the kind of experiment: increase of MDM2 autoubiquitination reporter luminescence – cell-based, 1536-well, MDM2 E3 ligase inhibitor project, primary screen (AID 1230).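 Note: luminescence tracks abundance of the self-degrading MDM2-luciferase fusion protein; higher signal means inhibition of MDM2 E3 ligase activity.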 The following applies: cell-based MDM2 ubiquitination luciferase reporter, 2 h; at 5 µM; hits give high values; 0 = plate control, 100 = twice control, blank-subtracted. The procedure, abridged: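 Buffer or medium: Cells held in DMEM | Assay system: Stable mammalian line carrying autodegrading MDM2–luciferase fusion reporter | Quantity: 2000 cells/well | Times: 4 h settle plus 2 h compound, 37 °C | Doses: One concentration, 5 µM, with 0.2% DMSO | Technique: Luminescence with SteadyLite reagent, 15 min at room temperature | Benchmarks: Plate controls and plate blanks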
`C=CCN1CCN(CCOC(=O)C(O)(c2ccccc2)c2ccccc2)CC1`: the signal enhancement is inactive: 3.8%. As to `CCN1CCCC(OC(=O)C2(O)c3ccccc3C=Cc3ccccc32)C1` (stereo unspecified), the signal enhancement was inactive: -19%.

Take `CN(C)C1CCCC1OC(=O)C(O)(c1ccccc1)c1ccccc1` (stereo unspecified): the signal enhancement is inactive: -5.23%.

With `Cc1ccccc1C(=O)NCC1(N2CCCCC2)CCCCC1`, the signal enhancement was inactive: -25.3%.

For `CC(C)N1C(=O)CC2(CCN(CCOC(=O)C(O)(c3ccccc3)c3ccccc3)CC2)C1=O`, the signal enhancement is inactive: -2.05%.

As for `CCN(CC)CC(C)C(C)OC(=O)C(O)(c1ccccc1)c1ccccc1` (stereo unspecified), the signal enhancement is inactive: -11.4%. As for `O=C(NCC1(N2CCCCC2)CCCCC1)c1cc([N+](=O)[O-])ccc1Cl`, the figure is inactive: -18%. To `COc1ccc(Br)c(C(=O)NCC2(N3CCCCC3)CCCCC2)c1` belongs inactive: -11%; to `CN(C)c1cccc(C(=O)NCC2(N(C)C)CCCCC2)c1`, inactive: -9.51%; to `O=C(OC1CN2CCC1CC2)C(CO)(c1ccccc1)c1ccccc1` (stereo unspecified), inactive: -9.98%. Turning to `COc1cccc(C(=O)NCC2(N3CCCCC3)CCCCC2)c1`, the signal enhancement was inactive: -1.98%.
